Source: BindingDB's records for doi:10.1021/acs.jmedchem.6b00871 (Arena Pharmaceuticals, 2017)

Assay: Agonist activity at IP receptor in human primary platelets assessed as inhibition of ADP-induced platelet aggregation

O=C(O)COC[C@H]1CC[C@@H](COC(=O)N(c2ccccc2)c2cccc(Cl)c2)CC1
IC50: 0.054 µM
